Measured values from patent US20240101552A1, “CARBONYL HETEROCYCLIC COMPOUND AND APPLICATION THEREOF” (SHANGHAI PHARMACEUTICALS HOLDING CO., LTD., priority 2020, published 2024).

The chains behind the UniProt entries cited, without tags or fusion partners.
UniProt Q9NS86, whole entry, species assumed: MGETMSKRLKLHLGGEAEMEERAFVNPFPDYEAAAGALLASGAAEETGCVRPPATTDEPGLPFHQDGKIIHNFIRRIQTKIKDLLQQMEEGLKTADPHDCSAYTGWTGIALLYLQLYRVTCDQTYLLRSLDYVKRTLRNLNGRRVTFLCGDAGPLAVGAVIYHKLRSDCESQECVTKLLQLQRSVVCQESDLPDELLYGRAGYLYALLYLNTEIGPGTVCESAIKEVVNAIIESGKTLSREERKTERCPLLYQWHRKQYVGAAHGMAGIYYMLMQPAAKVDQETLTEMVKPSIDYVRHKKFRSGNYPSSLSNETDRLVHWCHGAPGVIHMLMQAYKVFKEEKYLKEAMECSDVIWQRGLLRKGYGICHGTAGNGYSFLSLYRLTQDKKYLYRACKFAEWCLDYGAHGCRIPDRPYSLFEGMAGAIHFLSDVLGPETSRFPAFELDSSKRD

Biological target: LANCL2 (Homo sapiens (Human), UniProt Q9NS86)
Test: SPR (BIACORE S200) kinetic determination of LANCL2-small molecule interactions
Type: binding
Experimental: 1.1 Reagent Materials • Ligand: LANCL2 • Running buffer: 20 mM MES, 150 mM NaCl, 0.05% P20, pH 6.5, 1% DMSO
Injection conditions for small molecule compounds: a flow rate of 30 μL/min, a binding time of 60 s, a dissociation time of 300 s.
Running buffer: 20 mM MES, 150 mM NaCl, 0.05% P20, pH 6.5, 1% DMSO.
Sample chamber temperature: 25° C.; analysis temperature: 25° C.
Kinetic determination of LANCL2-small molecule interactions was performed. The kinetic parameters of small molecules BT-11 and L-1 to 60 (analytes) binding to LANCL2 (ligand) were determined using BIACORE S200. Data were generated in triplicate in a dose-dependent manner (5-8 titration points) and analyzed to determine binding models (Langmuir, conformational shifts, etc.), real-time association and dissociation constants, and equilibrium dissociation constants. […] Data were analyzed with BIACORE S200T200 evaluation software (version 1), so as to determine affinity binding constants (KD) using a 1:1 binding model.
An optical technique for detecting molecular interactions, SPR, was used to measure the binding affinity between LANCL2 and a ligand thereof (compound to be tested). […] The change in total mass on the chip surface, corresponding to a small binding to the protein, was measured. […] The steady-state affinity (Kd) for each interaction could be measured by plotting equilibrium binding levels against compound concentrations.

Kd (immobilized LANCL2, 1:1 binding model, pH 6.5, 25° C.): 24.8 µM
Rmax (RU) (maximum binding force): 12.7 RU
Structure (SMILES): O=C(c1cccc(-c2nc3ccccc3[nH]2)n1)N1CCN(C(=O)c2cccs2)CC1 [Embodiment L-112, (4-(6-(1H-benzo[d]imidazol-2-yl)picolinoyl)piperazin-1-yl)(thiophen-2-yl)methanone]
